# Experimental data published in patent US11918551B2, “Methods of treating seizure disorders and Prader-Willi syndrome” (Ovid Therapeutics, Inc., priority 2017, dated 2024).
# Assay: plasma pharmacokinetics (elimination half-life, dose proportionality of Cmax and AUC)
# Conditions: over a range of 5 mg-500 mg
smiles,measurement,value
N[C@H]1C[C@@H](C(=O)O)CC1=C(F)F,Cmax dose proportionality,increases in a dose proportional manner
